pKi: −log10 of the molar value.
Target: Kappa-type opioid receptor (Homo sapiens, UniProt P41145)
Assay: biochemical
Type: cell-based, CHO

Sequences of proteins named here, by UniProt entry; tags and fusion partners are left off. A change or cut given only in a name is not applied to a line headed by its entry.
UniProt P41145: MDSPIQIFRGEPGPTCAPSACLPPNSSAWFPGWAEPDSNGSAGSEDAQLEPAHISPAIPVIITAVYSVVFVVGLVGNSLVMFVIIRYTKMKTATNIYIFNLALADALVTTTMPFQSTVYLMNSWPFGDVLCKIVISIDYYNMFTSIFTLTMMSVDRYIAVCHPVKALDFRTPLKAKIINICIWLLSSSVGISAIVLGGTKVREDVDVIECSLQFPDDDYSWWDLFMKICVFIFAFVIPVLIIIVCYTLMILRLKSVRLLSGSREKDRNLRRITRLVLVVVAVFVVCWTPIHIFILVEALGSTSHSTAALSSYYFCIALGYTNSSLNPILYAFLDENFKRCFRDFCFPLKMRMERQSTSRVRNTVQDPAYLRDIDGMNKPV

With `C[C@@H]1[C@@H]2Cc3ccc(C(=O)NCCc4ccc(-c5ccccc5)cc4)cc3[C@]1(C)CCN2CC1CC1` the pKi was 8.07.

Molecule `C[C@H]1C2Cc3ccc(C(N)=O)cc3[C@@]1(C)CCN2CC1CC1` has a pKi of 10.22.

Reference: ChEMBL document CHEMBL1146899, “Redefining the structure-activity relationships of 2,6-methano-3-benzazocines. 4. Opioid receptor binding properties of 8-[N-(4'-phenyl)-phenethyl)carboxamido] analogues of cyclazocine and ethylketocycalzocine” (J Med Chem, 2006)
